The record followed here is ChEMBL document CHEMBL3392967, “Phosphatidylinositol 3-Kinase (PI3K) and phosphatidylinositol 3-kinase-related kinase (PIKK) inhibitors: importance of the morpholine ring” (J Med Chem, 2015).

Amino acid sequences for entries named in this document (tags omitted). A change or cut given only in a name is not applied to a line headed by its entry.
UniProt P42338: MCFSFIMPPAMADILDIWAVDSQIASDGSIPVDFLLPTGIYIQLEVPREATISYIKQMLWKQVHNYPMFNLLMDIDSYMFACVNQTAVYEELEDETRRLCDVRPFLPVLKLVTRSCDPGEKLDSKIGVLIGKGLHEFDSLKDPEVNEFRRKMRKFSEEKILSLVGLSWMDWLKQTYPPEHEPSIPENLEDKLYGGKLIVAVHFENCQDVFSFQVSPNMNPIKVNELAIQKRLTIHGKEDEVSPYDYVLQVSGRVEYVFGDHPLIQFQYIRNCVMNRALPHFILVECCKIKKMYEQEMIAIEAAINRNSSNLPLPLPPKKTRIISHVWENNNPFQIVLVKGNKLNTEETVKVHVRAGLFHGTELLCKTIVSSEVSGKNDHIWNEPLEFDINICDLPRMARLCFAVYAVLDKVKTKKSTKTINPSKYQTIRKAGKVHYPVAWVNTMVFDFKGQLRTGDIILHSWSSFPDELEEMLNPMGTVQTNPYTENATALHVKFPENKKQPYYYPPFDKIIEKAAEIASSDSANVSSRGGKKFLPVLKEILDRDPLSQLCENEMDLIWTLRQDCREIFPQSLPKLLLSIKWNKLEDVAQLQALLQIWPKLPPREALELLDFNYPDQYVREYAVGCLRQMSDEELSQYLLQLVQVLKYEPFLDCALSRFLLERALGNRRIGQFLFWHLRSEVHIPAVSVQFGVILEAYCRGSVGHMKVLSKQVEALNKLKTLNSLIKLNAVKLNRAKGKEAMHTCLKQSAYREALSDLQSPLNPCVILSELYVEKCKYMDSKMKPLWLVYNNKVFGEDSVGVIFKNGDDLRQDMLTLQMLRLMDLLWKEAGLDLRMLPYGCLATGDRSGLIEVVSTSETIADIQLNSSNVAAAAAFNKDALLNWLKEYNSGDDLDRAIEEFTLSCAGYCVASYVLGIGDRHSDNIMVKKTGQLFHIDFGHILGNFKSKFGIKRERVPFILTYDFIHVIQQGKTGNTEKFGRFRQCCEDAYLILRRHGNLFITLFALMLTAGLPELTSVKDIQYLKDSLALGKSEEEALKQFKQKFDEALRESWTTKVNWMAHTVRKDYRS

The target of the test is Phosphatidylinositol 4,5-bisphosphate 3-kinase catalytic subunit beta isoform (Homo sapiens, UniProt P42338).

A word on the IC50: it is the midpoint of a concentration-inhibition curve. `Cc1cc(C(C)Nc2ccccc2)c2nc(N3CCOCC3)cc(=O)n2c1` (configuration not stated) displayed an IC50 of 2 µM.

Regarding `O=c1cc(N2CCOCC2)oc2c(-c3ccccc3)cccc12` [LY-294002], the IC50 was found to be 16 µM.
